Laboratory results from patent US9539323B2, “Methods and compositions for malic enzyme 2 (ME2) as a target for cancer therapy” (Beth Israel Deaconess Medical Center, Inc., priority 2010, dated 2017).

Tested on: K562 cells
Assay: Cell death assessed by flow cytometry
Format: cell-based, human
Conditions: K562, 0.1 mM AOA plus 2 mM α-KG, 48 h
Method: A: Cells were treated with different concentrations of amino-oxyacetate and expression levels of the erythroid marker glycophorin A (GPA) on the surface of K562 cells were assessed using a mouse FITC-conjugated anti-human glycophorin A antibody. Each histogram is representative of three experiments. B: K562 cells with or without ME2 knockdown were incubated with different concentrations of AOA for 72 h. Cell death was assessed by flow cytometry. Top: pLKO; Bottom: shME2-3. […] C: Cells were treated with different concentrations of malate and expression levels of the erythroid marker glycophorin A on the surface of K562 cells were assessed using a mouse FITC-conjugated anti-human glycophorin A antibody. Each histogram is representative of three experiments.
K562 cells with or without ME2 knockdown were incubated with 0.1 mM AOA plus 2 mM α-KG for 48 h. Cell death was assessed by flow cytometry. A: pLKO K562 cells without any treatment. B: pLKO K562 cells treated with 0.1 mM AOA for 48 h. C: pLKO K562 cells treated with 0.1 mM AOA combined with 2 mM α-KG.

## α-ketoglutarate
  rescue of AOA mediated cell death: could rescue AOA mediated cell death
